{
  "source": "paper PMC3910272",
  "about": "“Assay Platform for Clinically Relevant Metallo-β-lactamases” (Journal of Medicinal Chemistry, 2013)",
  "assay_in_all_cases": "purified protein, by the assay type",
  "key": {"[1]": {"system": "O=C(Cc1ccccc1)N[C@@H]1C(=O)N2C(C(=O)O)=C(COc3ccc4ccc(=O)oc4c3)CS[C@H]12", "details": "other: NDM-1; substrate hydrolysis"}, "[2]": {"system": "O=C(Cc1ccccc1)N[C@@H]1C(=O)N2C(C(=O)O)=C(COc3ccc4ccc(=O)oc4c3)C[S+]([O-])[C@H]12", "details": "substrate hydrolysis"}, "[3]": {"system": "[H][C@@]12[C@H](NC(=O)Cc3ccccc3)C(=O)N1C(C(=O)O)=C(COc1ccc3ccc(=O)oc3c1)CS2(=O)=O", "details": "substrate hydrolysis"}, "[4]": {"system": "O=C(Cc1cccs1)N[C@@H]1C(=O)N2C(C(=O)O)=C(CSc3ccc([N+](=O)[O-])c(C(=O)O)c3)CS[C@H]12", "details": "substrate hydrolysis"}},
  "data": [
    {"substance": "NDM-1 (Klebsiella pneumoniae)", "values": [
      {"measurement": "Km", "setting": "[1]", "value": "17.6 ± 1.7", "unit": "µM"},
      {"measurement": "kcat", "setting": "[1]", "value": 103, "unit": "s⁻¹"},
      {"measurement": "kcat", "setting": "[2]; other: NDM-1", "value": 126, "unit": "s⁻¹"},
      {"measurement": "kcat", "setting": "[3]; other: NDM-1", "value": 298, "unit": "s⁻¹"},
      {"measurement": "Km", "setting": "[4]; other: NDM-1", "value": "34.6 ± 6.6", "unit": "µM"},
      {"measurement": "kcat", "setting": "[4]; other: NDM-1", "value": 92.5, "unit": "s⁻¹"}
    ]},
    {"substance": "BcII (Bacillus cereus)", "values": [
      {"measurement": "Km", "setting": "[2]; other: BcII", "value": "24.4 ± 1.7", "unit": "µM"},
      {"measurement": "kcat", "setting": "[2]; other: BcII", "value": 17.1, "unit": "s⁻¹"},
      {"measurement": "Km", "setting": "[3]; other: BcII", "value": "40.4 ± 3.3", "unit": "µM"},
      {"measurement": "kcat", "setting": "[3]; other: BcII", "value": 151, "unit": "s⁻¹"},
      {"measurement": "Km", "setting": "[4]; other: BcII", "value": "135.9 ± 16.4", "unit": "µM"}
    ]},
    {"substance": "VIM-2 (Escherichia coli)", "values": [
      {"measurement": "kcat", "setting": "[2]; other: VIM-2", "value": 126, "unit": "s⁻¹"},
      {"measurement": "Km", "setting": "[3]; other: VIM-2", "value": "15.2 ± 1.2", "unit": "µM"},
      {"measurement": "kcat", "setting": "[3]; other: VIM-2", "value": 291, "unit": "s⁻¹"},
      {"measurement": "Km", "setting": "[4]; other: VIM-2", "value": "26.1 ± 3.1", "unit": "µM"},
      {"measurement": "kcat", "setting": "[4]; other: VIM-2", "value": 48.2, "unit": "s⁻¹"}
    ]},
    {"substance": "SPM-1 (Pseudomonas aeruginosa)", "values": [
      {"measurement": "kcat", "setting": "[3]; other: SPM-1", "value": 27.4, "unit": "s⁻¹"},
      {"measurement": "Km", "setting": "[4]; other: SPM-1", "value": "25.3 ± 6.1", "unit": "µM"}
    ]}
  ]
}
